Source: publication PMC10301922, “Anti-Oxidant, Anti-Mutagenic Activity and Safety Evaluation of Antrocin” (Toxics, 2023)

Test system: Salmonella typhimurium TA1535
Assay: Antimutagenicity test, TA1535
Conditions: TA1535, without S9, against direct mutagen sodium azide

In the case of `C=C1CC[C@H]2C(C)(C)CCC[C@@]23C(=O)OC[C@@H]13` [Antrocin, (-)-Antrocin], the antimutagenic agent strength is reported as “moderately strong antimutagenic agent (inhibition is between 25% and 40%)”.
